Data on one compound can be found in BindingDB's records for patent US9956214 (University of Washington Through Its Center For …, 2018).

The structures appear in SMILES notation.

For this test, the target named is T1, Calcium-dependent protein kinase 1 (Cryptosporidium parvum, UniProt Q6S4W0).
T1 sequence (Q6S4W0 whole entry): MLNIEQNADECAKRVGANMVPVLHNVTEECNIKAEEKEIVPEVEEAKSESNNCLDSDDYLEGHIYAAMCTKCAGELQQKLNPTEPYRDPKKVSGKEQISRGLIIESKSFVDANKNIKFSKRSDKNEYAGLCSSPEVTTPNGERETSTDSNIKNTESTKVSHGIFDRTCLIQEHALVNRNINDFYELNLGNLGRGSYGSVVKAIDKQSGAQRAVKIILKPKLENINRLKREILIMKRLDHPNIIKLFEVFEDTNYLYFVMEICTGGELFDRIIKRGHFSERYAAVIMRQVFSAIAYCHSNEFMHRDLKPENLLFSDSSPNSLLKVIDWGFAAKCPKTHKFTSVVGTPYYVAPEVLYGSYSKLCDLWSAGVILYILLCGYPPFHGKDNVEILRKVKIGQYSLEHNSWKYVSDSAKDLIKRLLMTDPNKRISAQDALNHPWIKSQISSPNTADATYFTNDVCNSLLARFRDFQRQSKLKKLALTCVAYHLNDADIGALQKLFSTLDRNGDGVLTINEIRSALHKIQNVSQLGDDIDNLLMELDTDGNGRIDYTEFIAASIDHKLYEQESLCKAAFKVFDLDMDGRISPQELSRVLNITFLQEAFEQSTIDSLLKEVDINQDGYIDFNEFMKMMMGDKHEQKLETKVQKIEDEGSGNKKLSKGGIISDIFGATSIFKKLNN
The experiment in a line: Inhibition Assay.

As to `CC(C)(C)n1cc(C(N)=O)c(-c2ccc3c(N)n[nH]c3c2)n1` [US9956214, Compound 28], the IC50 worked out at 420 nM.

As usually defined, the IC50 is the concentration needed to halve the response being measured.
